This note sets out measurements from paper PMC7951137 (ACS chemical neuroscience, 2021).

Sequences of proteins named here, by UniProt entry; tags and fusion partners are left off.
UniProt P32245, whole entry D189N: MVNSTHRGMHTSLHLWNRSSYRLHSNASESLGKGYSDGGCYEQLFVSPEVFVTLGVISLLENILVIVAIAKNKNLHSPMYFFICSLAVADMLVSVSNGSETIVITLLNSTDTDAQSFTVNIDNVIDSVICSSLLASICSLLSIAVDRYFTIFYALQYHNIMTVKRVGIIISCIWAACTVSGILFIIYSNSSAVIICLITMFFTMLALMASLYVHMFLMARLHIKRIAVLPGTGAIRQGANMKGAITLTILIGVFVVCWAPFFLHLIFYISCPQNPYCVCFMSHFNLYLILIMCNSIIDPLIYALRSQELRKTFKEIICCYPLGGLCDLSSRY
UniProt P32245, whole entry D189S: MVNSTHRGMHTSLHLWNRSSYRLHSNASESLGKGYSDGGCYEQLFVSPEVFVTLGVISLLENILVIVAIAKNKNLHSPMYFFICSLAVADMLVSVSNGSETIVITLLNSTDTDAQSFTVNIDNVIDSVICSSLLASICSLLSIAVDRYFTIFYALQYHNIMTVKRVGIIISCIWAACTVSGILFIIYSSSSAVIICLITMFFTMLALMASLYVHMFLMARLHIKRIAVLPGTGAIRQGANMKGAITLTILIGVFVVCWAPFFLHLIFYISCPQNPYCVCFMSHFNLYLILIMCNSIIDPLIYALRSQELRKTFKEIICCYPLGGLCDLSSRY
UniProt P32245, whole entry D189K: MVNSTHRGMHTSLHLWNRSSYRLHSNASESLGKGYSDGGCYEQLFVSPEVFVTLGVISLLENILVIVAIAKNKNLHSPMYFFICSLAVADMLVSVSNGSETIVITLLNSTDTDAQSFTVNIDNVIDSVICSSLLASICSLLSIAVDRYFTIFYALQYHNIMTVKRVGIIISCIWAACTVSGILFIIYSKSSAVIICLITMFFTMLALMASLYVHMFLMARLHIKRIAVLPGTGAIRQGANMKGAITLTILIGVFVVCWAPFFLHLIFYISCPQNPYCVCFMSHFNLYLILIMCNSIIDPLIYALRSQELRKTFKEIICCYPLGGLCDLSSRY
UniProt P32245, whole entry D189E: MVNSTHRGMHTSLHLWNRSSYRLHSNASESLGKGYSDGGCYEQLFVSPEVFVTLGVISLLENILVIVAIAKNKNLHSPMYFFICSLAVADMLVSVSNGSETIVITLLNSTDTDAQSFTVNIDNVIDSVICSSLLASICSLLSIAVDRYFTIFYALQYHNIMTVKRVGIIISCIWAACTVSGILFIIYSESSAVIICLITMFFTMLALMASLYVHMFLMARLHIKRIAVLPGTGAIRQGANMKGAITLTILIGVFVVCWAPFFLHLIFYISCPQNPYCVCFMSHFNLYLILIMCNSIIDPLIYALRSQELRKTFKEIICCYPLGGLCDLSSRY
UniProt P32245, whole entry D189A: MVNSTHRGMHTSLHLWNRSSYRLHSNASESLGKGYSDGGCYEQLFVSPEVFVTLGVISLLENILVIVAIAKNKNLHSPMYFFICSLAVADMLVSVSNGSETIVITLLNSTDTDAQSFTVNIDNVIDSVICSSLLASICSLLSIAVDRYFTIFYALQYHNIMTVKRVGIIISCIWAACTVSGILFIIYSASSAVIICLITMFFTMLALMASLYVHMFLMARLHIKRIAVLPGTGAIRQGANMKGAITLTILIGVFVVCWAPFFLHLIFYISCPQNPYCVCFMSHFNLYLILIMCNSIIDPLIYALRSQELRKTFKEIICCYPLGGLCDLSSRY
UniProt P32245, whole entry D189Q: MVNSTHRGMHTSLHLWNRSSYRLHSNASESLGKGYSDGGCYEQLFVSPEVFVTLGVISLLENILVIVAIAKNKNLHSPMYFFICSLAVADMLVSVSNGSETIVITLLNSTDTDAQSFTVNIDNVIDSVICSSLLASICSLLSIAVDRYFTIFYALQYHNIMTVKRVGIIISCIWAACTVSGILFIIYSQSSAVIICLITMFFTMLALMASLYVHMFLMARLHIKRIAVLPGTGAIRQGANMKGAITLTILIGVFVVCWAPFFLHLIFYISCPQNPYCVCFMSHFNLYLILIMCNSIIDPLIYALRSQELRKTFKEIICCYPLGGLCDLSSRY
UniProt P32245, whole entry: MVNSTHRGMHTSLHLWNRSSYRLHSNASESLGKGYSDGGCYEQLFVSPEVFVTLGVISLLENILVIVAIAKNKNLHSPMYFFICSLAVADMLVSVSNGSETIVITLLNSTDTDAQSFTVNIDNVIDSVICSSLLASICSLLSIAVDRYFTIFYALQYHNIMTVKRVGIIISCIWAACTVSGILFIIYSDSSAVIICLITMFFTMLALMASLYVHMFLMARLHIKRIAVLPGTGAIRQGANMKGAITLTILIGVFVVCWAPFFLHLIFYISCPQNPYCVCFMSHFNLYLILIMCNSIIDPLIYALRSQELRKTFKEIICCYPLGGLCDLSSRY

Where two headings read alike, the source gives them in different places.

Experiment [1] addresses D189N hMC4R (Homo sapiens, UniProt P32245, D189N). Nature of the experiment: cAMP AlphaScreen agonist / inverse agonist assay. The experiment is classed as cell-based.
Experiment [2] concerns the target D189S hMC4R (Homo sapiens, UniProt P32245, D189S). The experiment in a line: cAMP AlphaScreen agonist / inverse agonist assay. In kind it is cell-based.
Experiment [3] concerns the target D189K hMC4R (Homo sapiens, UniProt P32245, D189K). The experiment in a line: cAMP AlphaScreen antagonist assay. In kind it is cell-based.
In experiment [4] the target is T1, D189E hMC4R (Homo sapiens, UniProt P32245, D189E). Nature of the experiment: cAMP AlphaScreen antagonist assay. In kind it is cell-based.
Experiment [5] deals with T1, D189E hMC4R. The experiment in a line: cAMP AlphaScreen agonist / inverse agonist assay. In kind it is cell-based.
In experiment [6] the target is D189A hMC4R (Homo sapiens, UniProt P32245, D189A). The experiment in a line: cAMP AlphaScreen antagonist assay. The experiment is classed as cell-based.
The target of experiment [7] is D189Q hMC4R (Homo sapiens, UniProt P32245, D189Q). Nature of the experiment: cAMP AlphaScreen antagonist assay. In kind it is cell-based.
Experiment [8] concerns the target T2, human melanocortin-4 receptor (hMC4R), wild type, N-terminal FLAG-tagged (human, UniProt P32245 1-332). The experiment in a line: radioligand binding.
Experiment [9] concerns the target T2, human melanocortin-4 receptor (hMC4R), …. Nature of the experiment: radioligand binding. The source holds these as a separate data set.

In the case of `C[C@@H]1NC(=O)[C@@H](CN)NC(=O)[C@H](Cc2ccccc2)NC(=O)[C@H](Cc2ccccc2)NC(=O)[C@H](CCCNC(=N)N)NC(=O)[C@@H]2CCCN2C(=O)[C@H]2CCCN2C(=O)[C@H](Cc2ccccc2)NC1=O` [MDE3–119-7c, c[Pro-Arg-Phe-Phe-DDap-Ala-Phe-DPro]], the EC50 in experiment [1] turned out to be 10 ± 2 nM; in experiment [2], 14 ± 8 nM; in experiment [5], 4 ± 2 nM. The Kb in experiment [3] was 20 nM; in [4], 1.58 nM.
Consider `C[C@@H]1NC(=O)[C@H](CN)NC(=O)[C@H](Cc2ccccc2)NC(=O)[C@H](Cc2ccccc2)NC(=O)[C@H](CCCNC(=N)N)NC(=O)[C@@H]2CCCN2C(=O)[C@H]2CCCN2C(=O)[C@H](Cc2ccccc2)NC1=O` [MDE3–119-8c, c[Pro-Arg-Phe-Phe-Dap-Ala-Phe-DPro]], for which the Kb in [6] was 50.1 nM; in experiment [7], 7.94 nM. Besides, the EC50 was 190 ± 188 nM in [1], 8 ± 5 nM in experiment [2] and 3.4 ± 2.2 nM in [5].
PRFFVAFP (DPro at position 8; cyclized head-to-tail through the DPro-Pro motif) [MDE3–119-10c]: the IC50 in [8] was 2400 nM; in [9] it was 5400 nM.
